Target: human 5HT2A receptors (Homo sapiens, UniProt P28223)
Test: cell-based

Amino acid sequences for entries named in this document (tags omitted).
UniProt P28223, whole entry: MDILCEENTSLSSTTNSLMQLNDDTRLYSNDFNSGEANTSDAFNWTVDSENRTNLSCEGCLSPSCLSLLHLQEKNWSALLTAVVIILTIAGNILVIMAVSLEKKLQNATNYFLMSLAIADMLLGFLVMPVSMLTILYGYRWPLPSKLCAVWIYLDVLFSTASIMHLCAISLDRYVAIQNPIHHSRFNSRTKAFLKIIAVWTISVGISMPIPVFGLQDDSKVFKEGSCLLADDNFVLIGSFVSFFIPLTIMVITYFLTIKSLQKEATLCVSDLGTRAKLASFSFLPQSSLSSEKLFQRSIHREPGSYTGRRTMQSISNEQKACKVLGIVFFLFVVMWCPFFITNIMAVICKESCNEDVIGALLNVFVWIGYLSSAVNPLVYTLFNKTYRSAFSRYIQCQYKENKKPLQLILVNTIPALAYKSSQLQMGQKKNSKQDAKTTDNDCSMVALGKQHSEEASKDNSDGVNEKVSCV

Compound `CCCN1CCC[C@@H]2Cc3n[nH]cc3C[C@H]21` [quinpirole] has an EC50 of 174 nM.

Source: patent US10525046B2 (ACADIA Pharmaceuticals Inc., priority 2003, dated 2020)
